Results from US5043328A (dated 1991).

Details: 1440 min

Sucrose palmitate stearate 15 [Example 66]
Stabilization (% remaining unsaturated fatty acid by Method 1): 92%
